The Ki is a measure of affinity in units of concentration, obtained from inhibition or displacement.

Amino acid sequences for entries named in this document (tags omitted). A change or cut given only in a name is not applied to a line headed by its entry.
UniProt P08482: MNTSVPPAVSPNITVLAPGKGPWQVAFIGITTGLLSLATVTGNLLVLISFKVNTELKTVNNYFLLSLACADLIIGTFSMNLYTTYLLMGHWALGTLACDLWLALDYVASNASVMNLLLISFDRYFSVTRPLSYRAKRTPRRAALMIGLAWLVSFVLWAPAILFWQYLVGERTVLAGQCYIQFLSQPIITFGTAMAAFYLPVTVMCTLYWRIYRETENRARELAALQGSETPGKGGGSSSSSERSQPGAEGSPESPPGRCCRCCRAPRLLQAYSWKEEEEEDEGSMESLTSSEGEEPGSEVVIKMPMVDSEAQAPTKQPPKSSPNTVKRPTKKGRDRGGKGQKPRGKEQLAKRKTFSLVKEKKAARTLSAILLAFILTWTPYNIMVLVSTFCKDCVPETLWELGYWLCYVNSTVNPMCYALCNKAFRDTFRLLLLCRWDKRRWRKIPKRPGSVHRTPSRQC

The target in this assay is Muscarinic acetylcholine receptor M1 (Rattus norvegicus, UniProt P08482). Description: Affinity for rat M1 acetylcholine receptor using [3H]pirenzepine displacement.

In turn, `CN1C2CCC1CC(OC(c1ccc(F)cc1)c1ccc(F)cc1)C2` (stereo unspecified) [DIFLUOROBENZTROPINE] showed a Ki of 6.1 nM.
